# Measured values as given in patent US20100279930A1 (published 2010).
# Protein sequences, listed by entry. Tags and fused reporters are not part of them. Lines headed by an entry give the natural chain unless they say otherwise; changes in a name come on top.
# UniProt P50391: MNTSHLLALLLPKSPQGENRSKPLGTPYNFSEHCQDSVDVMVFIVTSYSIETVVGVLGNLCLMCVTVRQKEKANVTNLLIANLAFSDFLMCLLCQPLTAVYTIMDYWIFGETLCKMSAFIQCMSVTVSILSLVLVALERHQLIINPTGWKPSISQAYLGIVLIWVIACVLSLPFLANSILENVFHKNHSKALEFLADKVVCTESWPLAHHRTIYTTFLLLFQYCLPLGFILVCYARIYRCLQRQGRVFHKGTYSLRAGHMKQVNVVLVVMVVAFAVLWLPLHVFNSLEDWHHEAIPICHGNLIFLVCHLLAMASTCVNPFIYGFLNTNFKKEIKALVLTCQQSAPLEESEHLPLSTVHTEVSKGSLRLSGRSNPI
# Where two headings read alike, the source gives them in different places.
# What was measured:
# human Y4 receptor [1] = target: T1, human Y4 receptor (human, UniProt P50391 1-375); assay: 125I-PP displacement
# human Y4 receptor [2] = target: T1, human Y4 receptor; assay: 125I-PP displacement; remark: listed apart in the source
IC50 (human Y4 receptor [1]) [pM],IC50 (human Y4 receptor [2]) [pM],Binder
230,–,APLEPVYPGDNATPEELNRYYASLRHYLNLVTRPRY [6459]
230,–,GAPLEPVYPGDNATPEQMAQYAADLRRYINMLTRPRY [6646]
–,230,APLEPFYPGDNATPEELVHYYSALRRYINMLTRPRY [6847]
